According to US20100137267A1, “FORMULATIONS FOR TREATMENT OF ADIPOSE TISSUE, CUTANEOUS TISSUE AND DISORDERS, AND MUSCULAR TISSUE” (priority 2006, published 2010):

Test system: cultured human adipocytes
Assay: In vitro lipolysis assay (glycerol release) in cultured adipocytes
Type: cell-based
Details: three hour incubation
Protocol: In the in vitro lipolysis assay, glycerol was detected in cell culture media via a spectrophotometric measurement after chemical oxidation with hydrogen peroxide. Glycerol was measured over a three hour time period. Levels of lipolysis in cultured human adipocytes were tested after exposure to a beta adrenergic agonist alone, a glucocorticosteroid alone, or the combination of the two for one or more preincubation periods as described in more detail below.
Human subcutaneous adipocytes were used in the lipolysis assay. Adipose tissue was harvested from liposuction or lipectomy and pre-adipocytes were isolated as follows. Briefly, fat tissue was minced and incubated at 37° C. in Krebs-Ringer bicarbonate buffer containing 1% bovine serum albumin and 0.1% collagenase in an oxygen-rich shaking chamber (5% CO2; 75 strokes/min) for 1 hour. The suspension was filtered through a 400 μm nylon mesh and centrifuged for 1 min at 100 g. The pre-adipocytes in the supernatant were washed twice with and then plated in 96 well plates at a density of cells/well. The pre-adipocytes were cultured in maintenance medium for seven days as they differentiated into adipocytes.
At −21 hours before the lipolysis assay, medium was removed from each well and replaced with 75 μl of Maintenance Medium containing appropriate drug or DMSO (vehicle) concentrations (see Experimental Design section below). Each test drug or control treatment was applied to 8 wells/group (12 treatment groups per 96-well plate). […]
The glycerol content of the Assay Buffer from each well following the incubation was used as an index for lipolysis, where an increase in glycerol indicated lipolysis. Glycerol levels were assayed colorimetrically via a commercial glycerol assay kit (Randox Laboratory, United Kingdom) and quantified by comparison to a glycerol serial dilution standard curve (3 μM-200 μM). […]

## OCc1cc(C(O)CNCCCCCCOCCCCc2ccccc2)ccc1O (racemic) [Salmeterol, ±2-(hydroxymethyl)-4-[1-hydroxy-2-[6-(4-phenylbutoxy)hexylamino]ethyl]-phenol]
  induction of lipolysis in cultured adipocytes (figure legend): dose-dependent induction of lipolysis
Isoproterenol 10^−6 M, formoterol statement holds for concentrations of 10^−6 M and above
  lipolysis compared with Isoproterenol (positive control): equal to or less than that observed for Isoproterenol
Relative to negative control (0.1% DMSO), Isoproterenol 10^−6 M positive control
  increase in lipolysis: slightly greater than two fold
